SMILES strings stand for the structures. pIC50: −log10 of the molar value.

By UniProt entry, the sequences of proteins in these tests, tags left out.
UniProt O43614, whole entry: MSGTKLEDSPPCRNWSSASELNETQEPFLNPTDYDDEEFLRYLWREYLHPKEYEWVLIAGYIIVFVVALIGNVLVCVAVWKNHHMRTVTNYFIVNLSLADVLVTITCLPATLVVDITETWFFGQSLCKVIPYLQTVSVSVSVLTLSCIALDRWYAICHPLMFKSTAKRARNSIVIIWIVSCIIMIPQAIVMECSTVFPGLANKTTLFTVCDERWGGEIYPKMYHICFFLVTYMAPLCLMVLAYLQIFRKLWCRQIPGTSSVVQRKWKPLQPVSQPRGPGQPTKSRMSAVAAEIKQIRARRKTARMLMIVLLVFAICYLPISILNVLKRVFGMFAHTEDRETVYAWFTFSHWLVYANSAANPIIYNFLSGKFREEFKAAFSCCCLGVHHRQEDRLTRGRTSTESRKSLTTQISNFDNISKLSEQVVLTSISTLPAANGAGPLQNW

The assay concerns the target human orexin-2 receptor (Homo sapiens (Human), UniProt O43614). Briefly: In vitro intracellular calcium measurements (FLIPR), antagonism of orexin-A response, OX2. The assay is classed as cell-based. To be noted: CHO cells expressing human orexin-2 receptor; 3 nM orexin-A; compound incubation time 120 min. A general note: A change in cytosolic calcium serves as a functional read-out for many receptors and channels.
On to `COc1cnc(NCCn2cc(NC(=O)c3ncoc3-c3cccc(C)c3)cn2)nc1OC` [Example 20, 5-m-Tolyl-oxazole-4-carboxylic acid {1-[2-(4,5-dimethoxy-pyrimidin-2-ylamino)-ethyl]-1H-pyrazol-4-yl}-amide], for which the pIC50 is 6.06.

Regarding `COc1ccc2c(c1)CCN2CCCn1cc(NC(=O)c2ncoc2-c2cccc(C)c2)cn1` [Example 21, 5-m-Tolyl-oxazole-4-carboxylic acid {1-[3-(5-methoxy-2,3-dihydro-indol-1-yl)-propyl]-1H-pyrazol-4-yl}-amide], the negative logarithm of the IC50 (pIC50) was 5.74.

On to `COc1ccc2c(c1)N(CCCn1cc(NC(=O)c3ncoc3-c3cccc(C)c3)cn1)CC2` [Example 22, 5-m-Tolyl-oxazole-4-carboxylic acid {1-[3-(6-methoxy-2,3-dihydro-indol-1-yl)-propyl]-1H-pyrazol-4-yl}-amide], for which the negative-log IC50 (pIC50) was 6.61.

As to `COc1cc(OC)nc(NCCn2cc(NC(=O)c3ncoc3-c3ccncn3)cn2)n1` [Example 23, 5-Pyrimidin-4-yl-oxazole-4-carboxylic acid {1-[2-(4,6-dimethoxy-pyrimidin-2-ylamino)-ethyl]-1H-pyrazol-4-yl}-amide], the pIC50 is 5.04.

In the case of `COc1ccc2[nH]cc(CCn3cc(NC(=O)c4ncoc4-c4ccc(C)c(C)c4)cn3)c2c1` [Example 24, 5-(3,4-Dimethyl-phenyl)-oxazole-4-carboxylic acid {1-[2-(5-methoxy-1H-indol-3-yl)-ethyl]-1H-pyrazol-4-yl}-amide], the pIC50 was 7.29.

Consider `COc1ccc2[nH]cc(CCn3cc(NC(=O)c4ncoc4-c4ccc(C)c(OC)c4)cn3)c2c1` [Example 25, 5-(3-Methoxy-4-methyl-phenyl)-oxazole-4-carboxylic acid {1-[2-(5-methoxy-1H-indol-3-yl)-ethyl]-1H-pyrazol-4-yl}-amide], for which the pIC50 was 6.84.

As for `COc1ccc(-c2ocnc2C(=O)Nc2cnn(CCc3c[nH]c4ccc(OC)cc34)c2)cc1` [Example 28, 5-(4-Methoxy-phenyl)-oxazole-4-carboxylic acid {1-[2-(5-methoxy-1H-indol-3-yl)-ethyl]-1H-pyrazol-4-yl}-amide], the pIC50 is 7.46.

As for `COc1ccc2[nH]cc(CCn3cc(NC(=O)c4ncsc4-c4cccc(C)c4)cn3)c2c1` [Example 30, 5-m-Tolyl-thiazole-4-carboxylic acid {1-[2-(5-methoxy-1H-indol-3-yl)-ethyl]-1H-pyrazol-4-yl}-amide], the pIC50 is 7.52.

As for `COc1cc2ccn(CCn3cc(NC(=O)c4ncoc4-c4ccc(C)c(C)c4)cn3)c2cc1OC` [Example 31, 5-(3,4-Dimethyl-phenyl)-oxazole-4-carboxylic acid {1-[2-(5,6-dimethoxy-indol-1-yl)-ethyl]-1H-pyrazol-4-yl}-amide], the pIC50 is 7.62.

In the case of `COc1cc(-c2ocnc2C(=O)Nc2cnn(CCn3ccc4cc(OC)c(OC)cc43)c2)ccc1C` [Example 32, 5-(3-Methoxy-4-methyl-phenyl)-oxazole-4-carboxylic acid {1-[2-(5,6-dimethoxy-indol-1-yl)-ethyl]-1H-pyrazol-4-yl}-amide], the pIC50 was 6.96.

With `COc1cc2ccn(CCn3cc(NC(=O)c4ncoc4-c4cccc(F)c4)cn3)c2cc1OC` [Example 33, 5-(3-Fluoro-phenyl)-oxazole-4-carboxylic acid {1-[2-(5,6-dimethoxy indol-1-yl)-ethyl]-1H-pyrazol-4-yl}-amide], the pIC50 was 6.84.

Consider `COc1ccc(-c2ocnc2C(=O)Nc2cnn(CCn3ccc4cc(OC)c(OC)cc43)c2)cc1` [Example 35, 5-(4-Methoxy-phenyl)-oxazole-4-carboxylic acid {1-[2-(5,6-dimethoxy-indol-1-yl)-ethyl]-1H-pyrazol-4-yl}-amide], for which the negative-log IC50 (pIC50) is 6.63.

As to `COc1cc2ccn(CCn3cc(NC(=O)c4ncoc4-c4ccccc4F)cn3)c2cc1OC` [Example 36, 5-(2-Fluoro-phenyl)-oxazole-4-carboxylic acid {1-[2-(5,6-dimethoxy-indol-1-yl)-ethyl]-1H-pyrazol-4-yl}-amide], the pIC50 was 6.54.

`COc1ccc2[nH]cc(CCn3cc(NC(=O)c4ncoc4-c4cccc(OC(F)(F)F)c4)cn3)c2c1` [Example 37, 5-(3-Trifluoromethoxy-phenyl)-oxazole-4-carboxylic acid {1-[2-(5-methoxy-1H-indol-3-yl)-ethyl]-1H-pyrazol-4-yl}-amide]: the pIC50 was 7.89.

As to `COc1ccc2[nH]cc(CCn3cc(NC(=O)c4ncoc4-c4cccc(C(F)(F)F)c4)cn3)c2c1` [Example 38, 5-(3-Trifluoromethyl-phenyl)-oxazole-4-carboxylic acid {1-[2-(5-methoxy-1H-indol-3-yl)-ethyl]-1H-pyrazol-4-yl}-amide], the pIC50 is 7.80.

On to `COc1ccc2[nH]cc(CCn3cc(NC(=O)c4ncoc4-c4cccc(Cl)c4)cn3)c2c1` [Example 39, 5-(3-Chloro-phenyl)-oxazole-4-carboxylic acid {1-[2-(5-methoxy-1H-indol-3-yl)-ethyl]-1H-pyrazol-4-yl}-amide], for which the pIC50 was 8.70.

Turning to `COc1ccc2[nH]cc(CCn3cc(NC(=O)c4ncoc4-c4cccc(-c5ccccc5)c4)cn3)c2c1` [Example 40, 5-Biphenyl-3-yl-oxazole-4-carboxylic acid {1-[2-(5-methoxy-1H-indol-3-yl)-ethyl]-1H-pyrazol-4-yl}-amide], the pIC50 is 7.14.

With `COc1ccc2[nH]cc(CCn3cc(NC(=O)c4ncoc4-c4ccc(C(F)(F)F)cc4)cn3)c2c1` [Example 41, 5-(4-Trifluoromethyl-phenyl)-oxazole-4-carboxylic acid {1-[2-(5-methoxy-1H-indol-3-yl)-ethyl]-1H-pyrazol-4-yl}-amide], the pIC50 was 6.23.

Regarding `COc1ccc2[nH]cc(CCn3cc(NC(=O)c4ncsc4-c4ccccc4)cn3)c2c1` [Example 42, 5-Phenyl-thiazole-4-carboxylic acid {1-[2-(5-methoxy-1H-indol-3-yl)-ethyl]-1H-pyrazol-4-yl}-amide], the pIC50 is 7.19.

Consider `COc1ccc2[nH]cc(CCn3cc(NC(=O)c4ncsc4-c4cccc(Cl)c4)cn3)c2c1` [Example 43, 5-(3-Chloro-phenyl)-thiazole-4-carboxylic acid {1-[2-(5-methoxy-1H-indol-3-yl)-ethyl]-1H-pyrazol-4-yl}-amide], for which the pIC50 was 7.70.

`COc1ccc2[nH]cc(CCn3cc(NC(=O)c4ncsc4-c4ccc(C)c(C)c4)cn3)c2c1` [Example 44, 5-(3,4-Dimethyl-phenyl)-thiazole-4-carboxylic acid {1-[2-(5-methoxy-1H-indol-3-yl)-ethyl]-1H-pyrazol-4-yl}-amide]: the pIC50 is 6.65.

Turning to `COc1ccc2[nH]cc(CCn3cc(NC(=O)c4ncsc4-c4ccc(OC)nc4)cn3)c2c1` [Example 45, 5-(6-Methoxy-pyridin-3-yl)-thiazole-4-carboxylic acid {1-[2-(5-methoxy-1H-indol-3-yl)-ethyl]-1H-pyrazol-4-yl}-amide], the pIC50 is 6.63.

Turning to `Cc1ccc(-c2ocnc2C(=O)Nc2cnn(CCn3c(C)nc4ccccc43)c2)cc1C` [Example 47, 5-(3,4-Dimethyl-phenyl)-oxazole-4-carboxylic acid {1-[2-(2-methyl-benzoimidazol-1-yl)-ethyl]-1H-pyrazol-4-yl}-amide], the pIC50 is 6.12.

In the case of `COc1cc(-c2ocnc2C(=O)Nc2cnn(CCn3c(C)nc4ccccc43)c2)ccc1C` [Example 48, 5-(3-Methoxy-4-methyl-phenyl)-oxazole-4-carboxylic acid {1-[2-(2-methyl-benzoimidazol-1-yl)-ethyl]-1H-pyrazol-4-yl}-amide], the pIC50 was 5.42.

Regarding `COc1cc(OC)nc(NCCn2cc(NC(=O)c3ncoc3-c3ccc(C)c(C)c3)cn2)n1` [Example 49, 5-(3,4-Dimethyl-phenyl)-oxazole-4-carboxylic acid {1-[2-(4,6-dimethoxy-pyrimidin-2-ylamino)-ethyl]-1H-pyrazol-4-yl}-amide], the pIC50 was 7.29.

On to `COc1cc(OC)nc(NCCn2cc(NC(=O)c3ncoc3-c3ccc(C)c(OC)c3)cn2)n1` [Example 50, 5-(3-Methoxy-4-methyl-phenyl)-oxazole-4-carboxylic acid {1-[2-(4,6-dimethoxy-pyrimidin-2-ylamino)-ethyl]-1H-pyrazol-4-yl}-amide], for which the pIC50 is 6.62.

`COc1cc(OC)nc(NCCn2cc(NC(=O)c3ncoc3-c3cccc(C#N)c3)cn2)n1` [Example 51, 5-(3-Cyano-phenyl)-oxazole-4-carboxylic acid {1-[2-(4,6-dimethoxy-pyrimidin-2-ylamino)-ethyl]-1H-pyrazol-4-yl}-amide]: the pIC50 was 6.45.

Regarding `COc1cc(OC)nc(NCCn2cc(NC(=O)c3ncoc3-c3cccc(F)c3)cn2)n1` [Example 52, 5-(3-Fluoro-phenyl)-oxazole-4-carboxylic acid {1-[2-(4,6-dimethoxy-pyrimidin-2-ylamino)-ethyl]-1H-pyrazol-4-yl}-amide], the pIC50 was 7.60.

`COc1cc(OC)nc(NCCn2cc(NC(=O)c3ncoc3-c3ccccc3F)cn2)n1` [Example 53, 5-(2-Fluoro-phenyl)-oxazole-4-carboxylic acid {1-[2-(4,6-dimethoxy-pyrimidin-2-ylamino)-ethyl]-1H-pyrazol-4-yl}-amide]: the pIC50 was 7.39.

For `COc1ccc(-c2ocnc2C(=O)Nc2cnn(CCNc3nc(OC)cc(OC)n3)c2)cc1` [Example 55, 5-(4-Methoxy-phenyl)-oxazole-4-carboxylic acid {1-[2-(4,6-dimethoxy-pyrimidin-2-ylamino)-ethyl]-1H-pyrazol-4-yl}-amide], the pIC50 was 7.00.

Take `Cc1cccc(-c2ocnc2C(=O)Nc2cnn(CCc3cn(C)c4ccccc34)c2)c1` [Example 57, 5-m-Tolyl-oxazole-4-carboxylic acid {1-[2-(1-methyl-1H-indol-3-yl)-ethyl]-1H-pyrazol-4-yl}-amide]: the pIC50 is 6.58.

For `Cc1cccc(-c2ocnc2C(=O)Nc2cnn(CCc3c[nH]c4ccccc34)c2)c1` [Example 58, 5-m-Tolyl-oxazole-4-carboxylic acid {1-[2-(1H-indol-3-yl)-ethyl]-1H-pyrazol-4-yl}-amide], the pIC50 was 6.63.

Broadly, the pIC50 is −log10 of the IC50, conventionally taken in molar units.

The record behind these values is US9303023B2, “Pyrazole and imidazole derivatives useful as orexin antagonists” (ACTELION PHARMACEUTICALS LTD., priority 2011, dated 2016).
